Results as given in paper PMC11254172 (International Journal for Parasitology: Drugs and Drug …, 2024).
“Also recorded” adds a separate entry of the source.

System: T. gondii ME49 tachyzoites
Type: cell-based, Toxoplasma gondii

## CC(C)(CO)Cn1nc(-c2ccc3cc(OC4CC4)ccc3c2)c(C(N)=O)c1N [BKI-1708]
  Ultrastructural alteration of intracellular tachyzoites (TEM): induced the formation of multinucleated schizont-like complexes (MNCs); also recorded: induced the formation of intracellular multinucleated complexes (MNCs)
